Our source for the Activity values is ChEMBL document CHEMBL2331145, “Orvinols with mixed kappa/mu opioid receptor agonist activity” (2013).

Chains of the proteins cited; added tags and fusions are not shown.
UniProt P41145, whole entry: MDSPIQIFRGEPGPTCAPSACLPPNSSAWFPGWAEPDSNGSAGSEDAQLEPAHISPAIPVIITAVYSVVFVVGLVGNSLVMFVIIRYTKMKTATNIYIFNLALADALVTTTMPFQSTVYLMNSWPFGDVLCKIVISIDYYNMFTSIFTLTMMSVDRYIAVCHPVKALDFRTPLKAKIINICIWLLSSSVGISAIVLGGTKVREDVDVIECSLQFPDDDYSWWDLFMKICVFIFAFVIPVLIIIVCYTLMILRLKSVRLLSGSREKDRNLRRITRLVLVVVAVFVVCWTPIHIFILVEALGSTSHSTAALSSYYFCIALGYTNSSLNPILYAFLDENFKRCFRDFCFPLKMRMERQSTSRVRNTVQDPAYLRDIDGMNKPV
UniProt P33535, whole entry: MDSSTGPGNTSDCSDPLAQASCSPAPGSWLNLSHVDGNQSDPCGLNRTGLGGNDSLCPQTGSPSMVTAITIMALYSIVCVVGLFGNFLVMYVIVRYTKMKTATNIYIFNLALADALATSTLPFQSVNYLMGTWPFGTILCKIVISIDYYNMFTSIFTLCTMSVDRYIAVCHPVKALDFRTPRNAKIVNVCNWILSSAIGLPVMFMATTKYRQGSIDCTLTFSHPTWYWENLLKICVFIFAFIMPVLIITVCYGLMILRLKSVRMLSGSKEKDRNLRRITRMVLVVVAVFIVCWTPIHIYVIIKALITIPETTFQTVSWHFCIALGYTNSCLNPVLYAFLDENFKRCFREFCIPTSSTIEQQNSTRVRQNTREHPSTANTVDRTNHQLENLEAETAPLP

Each structure is given as a SMILES string.

The first assay concerns the target Kappa-type opioid receptor (Homo sapiens) (UniProt P41145). In words: Agonist activity at human KOR expressed in CHO cells assessed as stimulation of [35S]GTPgammaS binding relative to U69593. In general terms: GTPγS resists hydrolysis and so accumulates on activated G proteins.
As to `CO[C@]12CC[C@@]3(C[C@@H]1[C@@](C)(O)CC(C)C)[C@H]1Cc4ccc(O)c5c4[C@@]3(CCN1CC1CC1)[C@H]2O5`, the Activity was found to be 89%. On the same count and under the same terms, to `CO[C@]12CC[C@@]3(C[C@@H]1[C@@H](O)CCc1ccccc1)[C@H]1Cc4ccc(O)c5c4[C@@]3(CCN1CC1CC1)[C@H]2O5` belongs 58%. As for `CO[C@]12CC[C@@]3(C[C@@H]1[C@@](C)(O)CC1CCCCC1)[C@H]1Cc4ccc(O)c5c4[C@@]3(CCN1CC1CC1)[C@H]2O5`, the Activity worked out at 87%.

For `CO[C@]12CC[C@@]3(C[C@@H]1[C@@H](O)CCC1CCCCC1)[C@H]1Cc4ccc(O)c5c4[C@@]3(CCN1CC1CC1)[C@H]2O5`, the Activity was 83%.

Regarding `CO[C@]12CC[C@@]3(C[C@@H]1[C@](C)(O)Cc1ccccc1)[C@H]1Cc4ccc(O)c5c4[C@@]3(CCN1CC1CC1)[C@H]2O5`, the Activity is 44%.

Regarding `CO[C@]12CC[C@@]3(C[C@@H]1[C@@](C)(O)CCC(C)C)[C@H]1Cc4ccc(O)c5c4[C@@]3(CCN1CC1CC1)[C@H]2O5`, the Activity came out at 96%. On the same count and under the same terms, to `CO[C@]12CC[C@@]3(C[C@@H]1[C@H](O)CC1CCCCC1)[C@H]1Cc4ccc(O)c5c4[C@@]3(CCN1CC1CC1)[C@H]2O5` belongs 81%. On to `CO[C@]12CC[C@@]3(C[C@@H]1[C@](C)(O)C1CCCCC1)[C@H]1Cc4ccc(O)c5c4[C@@]3(CCN1CC1CC1)[C@H]2O5`, for which the Activity came out at 53%. With `CO[C@]12C=C[C@@]3(C[C@@H]1[C@](C)(O)CCC(C)C)[C@H]1Cc4ccc(O)c5c4[C@@]3(CCN1CC1CC1)[C@H]2O5`, the Activity is 91%. For the compound `CO[C@]12CC[C@@]3(C[C@@H]1[C@@H](O)CC(C)C)[C@H]1Cc4ccc(O)c5c4[C@@]3(CCN1CC1CC1)[C@H]2O5`, the Activity worked out at 107%. Still for that read-out and setting: in the case of `CO[C@]12CC[C@@]3(C[C@@H]1[C@H](O)CCC(C)C)[C@H]1Cc4ccc(O)c5c4[C@@]3(CCN1CC1CC1)[C@H]2O5` it was 89%; in that of `CO[C@]12CC[C@@]3(C[C@@H]1[C@@H](O)CCC1CCCC1)[C@H]1Cc4ccc(O)c5c4[C@@]3(CCN1CC1CC1)[C@H]2O5`, 95%; in that of `CO[C@]12CC[C@@]3(C[C@@H]1[C@](C)(O)CCc1ccccc1)[C@H]1Cc4ccc(O)c5c4[C@@]3(CCN1CC1CC1)[C@H]2O5`, 89%. Still for that read-out and setting: in the case of `CO[C@]12CC[C@@]3(C[C@@H]1[C@](C)(O)CCC1CCCC1)[C@H]1Cc4ccc(O)c5c4[C@@]3(CCN1CC1CC1)[C@H]2O5` it was 82%; in that of `CO[C@]12CC[C@@]3(C[C@@H]1[C@@H](O)C(C)C)[C@H]1Cc4ccc(O)c5c4[C@@]3(CCN1CC1CC1)[C@H]2O5`, 59%.

`CO[C@]12CC[C@@]3(C[C@@H]1[C@H](O)CCC1CCCCC1)[C@H]1Cc4ccc(O)c5c4[C@@]3(CCN1CC1CC1)[C@H]2O5`: the Activity was found to be 94%.

Turning to `CO[C@]12CC[C@@]3(C[C@@H]1[C@](C)(O)CC1CCCC1)[C@H]1Cc4ccc(O)c5c4[C@@]3(CCN1CC1CC1)[C@H]2O5`, the Activity is 93%.

Turning to `CO[C@]12CC[C@@]3(C[C@@H]1[C@@H](O)CC1CCCC1)[C@H]1Cc4ccc(O)c5c4[C@@]3(CCN1CC1CC1)[C@H]2O5`, the Activity was determined as 103%. Take `CO[C@]12CC[C@@]3(C[C@@H]1[C@](C)(O)CC1CCCCC1)[C@H]1Cc4ccc(O)c5c4[C@@]3(CCN1CC1CC1)[C@H]2O5`: the Activity worked out at 75%.

Another assay addresses Mu-type opioid receptor (Rattus norvegicus) (UniProt P33535). In words: Agonist activity at rat recombinant MOR expressed in rat C6 cells assessed as stimulation of [35S]GTPgammaS binding after 1 hr relative to DAMGO.
For the compound `CC[C@@]12CCN(CC3CC3)[C@@H](C(=O)c3ccc(O)cc31)[C@H]2C`, the Activity was 26%.

As to `CO[C@]12CC[C@@]3(C[C@@H]1[C@@](C)(O)CC(C)C)[C@H]1Cc4ccc(O)c5c4[C@@]3(CCN1CC1CC1)[C@H]2O5`, the Activity came out at 7.6%. The same measure, in the same setting: to `CO[C@]12CC[C@@]3(C[C@@H]1[C@@](C)(O)CC1CCCCC1)[C@H]1Cc4ccc(O)c5c4[C@@]3(CCN1CC1CC1)[C@H]2O5` belongs 46%. Same read-out and setting: in the case of `CO[C@]12CC[C@@]3(C[C@@H]1[C@@](C)(O)CCC(C)C)[C@H]1Cc4ccc(O)c5c4[C@@]3(CCN1CC1CC1)[C@H]2O5` it was 25%. Still for that read-out and setting: to `CO[C@]12CC[C@@]3(C[C@@H]1[C@H](O)CC1CCCCC1)[C@H]1Cc4ccc(O)c5c4[C@@]3(CCN1CC1CC1)[C@H]2O5` belongs 45%; to `CO[C@]12CC[C@@]3(C[C@@H]1[C@](C)(O)C1CCCCC1)[C@H]1Cc4ccc(O)c5c4[C@@]3(CCN1CC1CC1)[C@H]2O5`, 35%; to `CO[C@]12CC[C@@]3(C[C@@H]1[C@H](O)CCC(C)C)[C@H]1Cc4ccc(O)c5c4[C@@]3(CCN1CC1CC1)[C@H]2O5`, 39%. For `CO[C@]12CC[C@@]3(C[C@@H]1[C@@H](O)CCC1CCCC1)[C@H]1Cc4ccc(O)c5c4[C@@]3(CCN1CC1CC1)[C@H]2O5`, the Activity is 83%. The same measure, in the same setting: to `CO[C@]12CC[C@@]3(C[C@@H]1[C@](C)(O)CCc1ccccc1)[C@H]1Cc4ccc(O)c5c4[C@@]3(CCN1CC1CC1)[C@H]2O5` belongs 47%. The same measure, in the same setting: to `CO[C@]12CC[C@@]3(C[C@@H]1[C@](C)(O)CCC1CCCC1)[C@H]1Cc4ccc(O)c5c4[C@@]3(CCN1CC1CC1)[C@H]2O5` belongs 56%; to `CO[C@]12CC[C@@]3(C[C@@H]1[C@@H](O)C(C)C)[C@H]1Cc4ccc(O)c5c4[C@@]3(CCN1CC1CC1)[C@H]2O5`, 0%. The same measure, in the same setting: to `CO[C@]12CC[C@@]3(C[C@@H]1[C@](C)(O)CC1CCCC1)[C@H]1Cc4ccc(O)c5c4[C@@]3(CCN1CC1CC1)[C@H]2O5` belongs 38%; to `CO[C@]12CC[C@@]3(C[C@@H]1[C@](C)(O)CC1CCCCC1)[C@H]1Cc4ccc(O)c5c4[C@@]3(CCN1CC1CC1)[C@H]2O5`, 63%.
